Source: patent US6323240A, “4-phenyl-4-oxo-butanoic acid derivatives with kynurenine-3-hydroxylase inhibiting activity” (Pharmacia & Upjohn S.p.A., priority 1995, dated 2001)

Amino acid sequences for entries named in this document (tags omitted). A change or cut given only in a name is not applied to a line headed by its entry.
UniProt O88867: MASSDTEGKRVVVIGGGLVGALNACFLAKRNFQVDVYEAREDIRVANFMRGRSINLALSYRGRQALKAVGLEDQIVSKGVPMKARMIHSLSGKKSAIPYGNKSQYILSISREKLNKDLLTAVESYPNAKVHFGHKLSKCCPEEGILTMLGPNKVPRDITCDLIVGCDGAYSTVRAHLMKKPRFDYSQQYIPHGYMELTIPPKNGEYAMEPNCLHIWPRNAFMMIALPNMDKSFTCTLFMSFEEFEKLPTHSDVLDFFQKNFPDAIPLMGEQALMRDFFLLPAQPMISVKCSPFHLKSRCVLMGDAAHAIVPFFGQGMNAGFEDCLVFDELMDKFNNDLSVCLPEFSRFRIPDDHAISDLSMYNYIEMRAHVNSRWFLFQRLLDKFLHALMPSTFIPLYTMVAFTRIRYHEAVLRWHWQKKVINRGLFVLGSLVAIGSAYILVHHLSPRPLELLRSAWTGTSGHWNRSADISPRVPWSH

These molecules were tested against kynurenine-3-hydroxylase (Rattus norvegicus, UniProt O88867) (assay: Kynurenine-3-hydroxylase assay in the rat liver (radiometric, tritiated water release, rat liver mitochondrial extract)). Conditions: 0.025 mM L-kynurenine, pH 8.1, 37° C., 30 min.
Type: biochemical
Design: Rat liver mitochondrial extract was used as enzymatic preparation for this assay; from tissue; host or cells: rat liver mitochondrial extract
Method: Kynurenine-3-hydroxylase Assay in the Rat Liver
The assay for kynurenine 3-hydroxylase was based on the enzymatic synthesis of tritiated water during the hydroxylation reaction. Radiolabeled water was quantified following selective adsorption of the isotopic substrate and its metabolite with activated charcoal.
Rat liver mitochondrial extract was used as enzymatic preparation for this assay.
The assay for kynurenine 3-hydroxylase activity was carried out at 37° C. for a time of 30 min. The reaction mixture of a total volume of […] was constituted of […] of suspended extract, 100 mM Tris/Cl^- buffer pH 8.1, 10 mM EDTA, 100 mM Kcl, 0.8 mM NADPH, 0.025 mM L-kynurenine, […] L-(3,5-^3 H)Kynurenine (10 Ci/mmol) and […] of different concentration of inhibitor solutions. After the incubation the reaction was terminated by the addition of 1 mL of 7.5% (w/v) activated charcoal, vortexed and centrifugated for 7 min.
A […] aliquot of supernatant was counted by scintillation spectroscopy in 5 ml of liquid scintillation.

Compared with `O=C(CC(O)C(=O)O)c1ccc(F)c(F)c1` (racemic) [PNU 158783, (R,S)-2-hydroxy-4-(3',4'-difluorophenyl)-4-oxo-butanoic acid], `O=C(CC(O)C(=O)O)c1cccc(F)c1` (racemic) [PNU 158790, (R,S)-2-hydroxy-4-(3'-fluorophenyl)-4-oxo-butanoic acid] is 4.1-fold higher in IC50: 2.8 µM for the first, 11.5 µM for the second.

For `O=C(CC(O)C(=O)O)c1cccc([N+](=O)[O-])c1` (racemic) [PNU 158791, (R,S)-2-hydroxy-4-(3'-nitrophenyl)-4-oxo-butanoic acid], the IC50 was 11.2 µM.
